Results on one compound are retold here after ChEMBL document CHEMBL4270669 (J Med Chem, 2018).

Protein sequences, listed by entry. Tags and fused reporters are not part of them. Lines headed by an entry give the natural chain unless they say otherwise; changes in a name come on top.
UniProt P48736: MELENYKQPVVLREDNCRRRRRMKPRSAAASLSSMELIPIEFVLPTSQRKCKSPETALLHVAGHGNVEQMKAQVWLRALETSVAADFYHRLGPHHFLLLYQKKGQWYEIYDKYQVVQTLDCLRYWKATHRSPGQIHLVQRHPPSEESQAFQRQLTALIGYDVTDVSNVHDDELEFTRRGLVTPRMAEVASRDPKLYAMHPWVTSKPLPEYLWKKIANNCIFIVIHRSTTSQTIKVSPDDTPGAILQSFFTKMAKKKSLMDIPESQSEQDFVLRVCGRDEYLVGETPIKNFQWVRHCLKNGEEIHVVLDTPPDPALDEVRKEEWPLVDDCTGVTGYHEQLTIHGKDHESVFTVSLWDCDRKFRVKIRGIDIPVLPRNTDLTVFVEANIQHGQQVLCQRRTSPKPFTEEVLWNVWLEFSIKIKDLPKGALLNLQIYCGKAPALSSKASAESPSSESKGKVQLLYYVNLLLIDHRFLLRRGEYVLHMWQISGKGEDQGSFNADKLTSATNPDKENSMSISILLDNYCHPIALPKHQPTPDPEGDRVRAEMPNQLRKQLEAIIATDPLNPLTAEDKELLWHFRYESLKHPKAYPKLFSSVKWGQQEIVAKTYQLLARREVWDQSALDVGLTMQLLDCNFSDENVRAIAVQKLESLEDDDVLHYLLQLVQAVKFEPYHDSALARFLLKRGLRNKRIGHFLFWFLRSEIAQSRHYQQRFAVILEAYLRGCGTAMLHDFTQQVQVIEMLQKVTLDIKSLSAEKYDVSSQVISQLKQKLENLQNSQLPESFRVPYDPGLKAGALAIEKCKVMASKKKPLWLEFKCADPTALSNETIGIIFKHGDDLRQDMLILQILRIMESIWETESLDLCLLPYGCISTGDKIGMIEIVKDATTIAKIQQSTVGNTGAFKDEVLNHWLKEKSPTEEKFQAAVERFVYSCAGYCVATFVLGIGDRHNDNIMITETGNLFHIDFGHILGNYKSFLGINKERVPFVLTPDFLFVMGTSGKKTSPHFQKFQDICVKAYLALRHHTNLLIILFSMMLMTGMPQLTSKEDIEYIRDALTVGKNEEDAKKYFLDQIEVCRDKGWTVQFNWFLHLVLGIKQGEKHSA

The target in the experiment is Phosphatidylinositol 4,5-bisphosphate 3-kinase catalytic subunit gamma isoform (Homo sapiens, UniProt P48736).

SMILES strings stand for the structures.

Regarding `CC(C)n1nc(-c2ccc3oc(N)nc3c2)c2c(N)ncnc21` [SAPANISERTIB], binding was put at a Kd of 3.7 nM.
